{"source": "patent EP0490549B1", "about": "“Stabilisation of pharmaceutical compositions comprising calcitonin” (CIBA-GEIGY AG, priority 1990, dated 1995)", "assay": "Stability of aqueous hCT solutions against fibrillation or precipitation (solution remains clear on storage)", "settings": "0.001% acetic acid, compared overall with other acids and concentrations", "data": [{"smiles": "CC(=O)O", "note": "[acetic acid]", "values": [{"measurement": "stabilising conditions", "value": "best case"}]}]}
